In the library only some 0.43% were active in any assay of this set; here they are far more common.
EPAC1 antagonist = qHTS for Antagonist of cAMP-regulated guanine nucleotide exchange factor 3 (EPAC1): primary screen. Rap guanine nucleotide exchange factor 3 (Homo sapiens), O95398. actives 0.14% (n = 360,000). Potency, µM (series often up to 115 µM), usual class: inhibitors. EPAC1 GEF assay, Rap1b-BODIPY-GDP exchange fluorescence; further: nearly all actives have a fitted effect of over 50% in size
Rango complex inh = qHTS Assay for Inhibitors of Rango (Ran-regulated importin-beta cargo) - Importin beta complex formation. Potency, µM (titrated, usually from 92.2 µM). Rango CFP/YFP FRET sensor + importin beta, 45 min. AID 540263, 2011. actives 0.031% (n = 340,000). Importin subunit beta-1 (Homo sapiens), Q14974; calls by dose curve; further: nearly all actives have a fitted effect of over 15% in size
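FRET biosensor Rango (snurportin 1 IBB between N-terminal EYFP and C-terminal Cerulean), 50 nM in PBS/1 mM DTT/0.02% Tween-20/0.1% BSA, preincubated 5 min RT with compound; 0.125 microM importin beta added, 45 min RT, CFP/YFP FRET ratio read.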
Rango release inh = qHTS Assay for Inhibitors of RanGTP induced Rango (Ran-regulated importin-beta cargo) - Importin beta complex dissociation; Snurportin-1 (Homo sapiens) + GTP-binding nuclear protein Ran (Homo sapiens) + Importin …; Biochemical FRET Rango-importin beta, RanGTP-induced dissociation; Potency, µM (top dose mostly 46.1 µM); actives 0.071% (n = 340,000); calls by dose curve; further: nearly all actives have a fitted effect of over 45% in size
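Quantitative HTS using a FRET biosensor: 0.1 uM Rango, 0.25 uM importin beta, 0.6 uM Ran, 2 mM GTP, 0.2 uM RCC1 final, PBS with DTT, Tween-20 and BSA. Post-read taken 45 min after Ran addition.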
EPAC2 antag = qHTS for Antagonist of cAMP-regulated guanine nucleotide exchange factor 2 (EPAC2): primary screen; Rap guanine nucleotide exchange factor 4 (Homo sapiens), Q8WZA2; EPAC2 GEF exchange of Rap1B-BODIPY-GDP, fluorescence; Potency, µM (highest dose often 114 µM), usual class: inhibitors; actives 0.18% (n = 360,000); AID 720708, 2013; further: nearly all actives have a fitted effect of over 45% in size
EPAC2 agonist = qHTS for Agonist of cAMP-regulated guanine nucleotide exchange factor 4 (EPAC2): primary screen; Potency, µM (doses to about 154 µM), hits mostly activators; Rap guanine nucleotide exchange factor 4 (Homo sapiens), Q8WZA2; AID 720711, 2013; actives 0.079% (n = 360,000); EPAC2 activation, biochemical qHTS; response scale: 100% = 6.5 mM cAMP response; further: nearly all actives have a fitted effect of over 50% in size
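Readout is BODIPY fluorescence (480 nm excitation, 540 nm emission), which falls as labeled GDP is exchanged off Rap1B. EPAC2 at 100 nM acted on 250 nM RAP1B-BODIPY-GDP with 50 uM GDP present.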
EPAC1 ag = qHTS for Agonist of cAMP-regulated guanine nucleotide exchange factor 3 (EPAC1): primary screen; EPAC1 agonist qHTS, biochemical assay; response scale: 100% = response to 6.5 mM cAMP; AID 720707, 2013; actives 0.073% (n = 360,000); Rap guanine nucleotide exchange factor 3 (Homo sapiens), O95398; Potency, µM (doses to about 154 µM), hits mostly activators; further: nearly all actives have a fitted effect of over 60% in size
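Normalized to 6.5 mM cAMP, activity reflects EPAC1-catalysed release of BODIPY-GDP from Rap1B, followed kinetically over 30 min at 480 nm excitation, 540 nm emission. Reaction contained 100 nM EPAC1, 250 nM Rap1B-BODIPY-GDP, 50 uM GDP.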
Numbers stand for hits; – = inactive; ? = inconclusive; · = no result given. Unless noted, the call rests on the fitted dose curve; in most records, active means well fitted curve in the direction sought with a large enough effect; inconclusive means small, poorly fitted or top-dose-only effect, or another doubt; inactive means no such curve, though single readings can be large; an effect the other way counts as inactive or inconclusive.

Amino acid sequences for entries named in this document (tags omitted).
Rap guanine nucleotide exchange factor 3 (Homo sapiens), O95398, UniProt O95398, whole entry, looked up: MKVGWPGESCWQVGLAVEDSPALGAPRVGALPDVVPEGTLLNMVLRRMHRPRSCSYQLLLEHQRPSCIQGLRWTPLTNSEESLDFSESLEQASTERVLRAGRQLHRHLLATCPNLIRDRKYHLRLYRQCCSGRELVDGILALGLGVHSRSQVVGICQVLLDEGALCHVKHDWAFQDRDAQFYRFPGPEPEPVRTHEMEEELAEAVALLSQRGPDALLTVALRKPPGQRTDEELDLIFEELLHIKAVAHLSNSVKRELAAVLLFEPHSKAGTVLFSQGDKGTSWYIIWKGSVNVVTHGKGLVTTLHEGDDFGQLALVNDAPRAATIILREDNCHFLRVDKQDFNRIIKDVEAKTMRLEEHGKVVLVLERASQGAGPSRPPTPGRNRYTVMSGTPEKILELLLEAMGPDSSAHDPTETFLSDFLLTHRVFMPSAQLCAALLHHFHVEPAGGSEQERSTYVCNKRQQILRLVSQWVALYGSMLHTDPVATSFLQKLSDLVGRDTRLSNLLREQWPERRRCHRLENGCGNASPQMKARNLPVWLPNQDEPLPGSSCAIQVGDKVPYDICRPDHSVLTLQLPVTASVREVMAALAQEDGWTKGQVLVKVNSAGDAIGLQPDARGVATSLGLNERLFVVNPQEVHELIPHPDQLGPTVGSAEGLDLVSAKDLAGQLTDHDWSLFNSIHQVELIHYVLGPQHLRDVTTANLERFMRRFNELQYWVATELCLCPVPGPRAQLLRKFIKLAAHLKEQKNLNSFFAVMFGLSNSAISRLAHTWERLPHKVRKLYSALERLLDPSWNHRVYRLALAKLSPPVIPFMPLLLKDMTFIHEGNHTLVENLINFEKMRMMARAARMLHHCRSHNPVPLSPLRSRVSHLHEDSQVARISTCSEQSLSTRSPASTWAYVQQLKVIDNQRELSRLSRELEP
Importin subunit beta-1 (Homo sapiens), Q14974, UniProt Q14974, whole entry, looked up: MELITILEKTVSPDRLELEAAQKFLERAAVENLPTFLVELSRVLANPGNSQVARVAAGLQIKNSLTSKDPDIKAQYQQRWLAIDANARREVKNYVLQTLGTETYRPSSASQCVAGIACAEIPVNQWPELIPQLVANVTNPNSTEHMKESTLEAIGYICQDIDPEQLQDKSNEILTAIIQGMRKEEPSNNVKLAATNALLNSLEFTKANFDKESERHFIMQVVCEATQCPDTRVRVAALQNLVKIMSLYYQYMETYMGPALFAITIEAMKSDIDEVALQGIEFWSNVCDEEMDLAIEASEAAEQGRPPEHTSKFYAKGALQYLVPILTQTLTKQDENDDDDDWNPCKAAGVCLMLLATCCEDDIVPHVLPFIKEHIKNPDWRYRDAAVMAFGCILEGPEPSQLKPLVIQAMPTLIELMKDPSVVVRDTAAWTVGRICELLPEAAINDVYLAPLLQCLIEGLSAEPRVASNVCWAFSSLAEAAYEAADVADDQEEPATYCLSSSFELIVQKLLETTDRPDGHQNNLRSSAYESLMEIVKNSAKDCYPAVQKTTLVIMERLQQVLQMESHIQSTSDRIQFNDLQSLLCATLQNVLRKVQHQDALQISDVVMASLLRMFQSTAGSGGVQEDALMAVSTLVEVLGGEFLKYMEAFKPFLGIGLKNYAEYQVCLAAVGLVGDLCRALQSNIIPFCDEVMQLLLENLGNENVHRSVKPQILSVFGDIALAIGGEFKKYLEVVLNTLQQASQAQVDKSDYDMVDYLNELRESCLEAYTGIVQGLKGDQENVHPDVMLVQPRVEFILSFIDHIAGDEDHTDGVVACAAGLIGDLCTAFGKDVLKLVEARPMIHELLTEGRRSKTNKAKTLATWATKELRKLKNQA

SMILES | EPAC1 antagonist | Rango complex inh | Rango release inh | EPAC2 antag | EPAC2 agonist | EPAC1 ag
CCc1nc2c(OCc3ccc(C(F)(F)F)cc3)cccn2c1N(C)C(=O)c1ccc(OC)cc1 | – | · | · | 17.8µM | – | –
CCc1nc2c(OCc3ccc(C(F)(F)F)cc3)cccn2c1N(C)C(=O)c1ccc(C)cc1 | – | · | · | 15.8µM | – | –
CCc1nc2c(OCc3ccc(OC)cc3)cccn2c1N(C)C(=O)c1ccc(OC)cc1 | – | · | · | ? | – | –
COc1cc(Cl)c(C)cc1NC(=O)CSc1cc(Cl)ccc1Cl | 25.1µM | – | – | – | – | –
CCOc1ccc(-n2nc3ccc(N)cc3n2)cc1 | – | ? | 5.17µM | – | – | –
Cc1ccc(NS(=O)(=O)c2cccc3cccnc23)c(Br)c1 | – | – | ? | – | – | –
Cc1ccc(NS(=O)(=O)c2cccc3cccnc23)c(Cl)c1 | – | – | – | 28.2µM | – | –
N#Cc1c(-c2cccs2)nc(SCc2ccc(Cl)cc2)[nH]c1=O | 89.1µM | – | – | 50.1µM | – | –
COc1cc(NC(=O)c2cc3ccccc3o2)c(OC)cc1Br | – | – | – | – | 10µM | –
O=C(c1cc2cc(Cl)ccc2oc1=O)N1CCOCC1 | – | – | – | – | – | –
NC(=S)c1cc2cc(Cl)ccc2oc1=O | – | 25.9µM | – | – | – | –
O=S(=O)(/N=C(/c1ccccc1)N1CCOCC1)c1ccc(F)cc1F | – | – | – | – | – | –
CCCCCCN1C[C@@H](n2cc(COC(=O)c3ccccc3)nn2)[C@H](O)C[C@@H]1c1ccc(C)cc1 | – | · | · | – | – | –
CCNc1nn2ccccc2c1/C=C(\C#N)C(=O)OCC | – | ? | 10.3µM | – | – | –
CC(=O)OC(C(=O)NCCN1CCOCC1)c1c(F)cccc1F (stereo not given) | – | – | – | – | – | –
COc1ccc(C2N(c3ccc(Cl)cc3)N=C(C(C)=O)N(C)N2C(C)=O)cc1 (stereo not given) | – | – | – | 20µM | – | –
COc1cccc(N2C(C(C)=O)=NN(c3ccccc3)C2c2ccc(N3CCOCC3)cc2)c1 (stereo not given) | – | ? | ? | – | – | –
CCOC(=O)C1=C(N)c2ccccc2CC1C1CCCC1 (stereo not given) | – | – | – | 15.8µM | – | –
Cc1cccc(N2CCN(CC(=O)NCc3ccc(Cl)cc3)CC2)c1C | – | – | – | – | – | –
CCCCn1c(N)c(N(C)C(=O)C2CC(=O)N(Cc3ccco3)C2)c(=O)[nH]c1=O (stereo not given) | – | – | – | – | – | –
CN(C)CCCN1C(=O)c2cccc3c(Br)ccc(c23)C1=O | – | ? | ? | – | – | –
CCN(CC)S(=O)(=O)c1ccc(C(=O)OCCN2C(=O)c3cccc4c(N5CCOCC5)ccc(c34)C2=O)cc1 | – | ? | ? | – | – | ?
CCCCNc1ccc2c3c(cccc13)C(=O)N(CCCC)C2=O | – | ? | ? | – | 100µM | 79.4µM
CCCN1C(=O)c2cccc3c(N4CCCCC4)ccc(c23)C1=O | – | ? | ? | – | 100µM | ?
CC(=O)N(C(C)=O)N1C(=O)c2cccc3c(N4CCOCC4)ccc(c23)C1=O | ? | ? | ? | – | – | 112µM
SMILES | EPAC1 antagonist | Rango complex inh | Rango release inh | EPAC2 antag | EPAC2 agonist | EPAC1 ag
N#Cc1c(SCC(=O)Nc2ccc(C(F)(F)F)cc2)sc2c(O)cc(=O)[nH]c12 | – | – | – | – | – | –
N#Cc1c(SCC(=O)Nc2nncs2)sc2c(O)cc(=O)[nH]c12 | 89.1µM | ? | – | – | – | –
CCCN(Cc1cc2ccc(C)cc2[nH]c1=O)C(=O)c1ccccn1 | – | – | – | – | – | –
CC(=O)Nc1scc(-c2ccccc2)[n+]1-c1ccc(C)cc1 | – | – | – | 31.6µM | – | –
CCCCc1cc(=O)oc2cc(C)cc(OC(C)C(=O)O)c12 (stereo not given) | – | – | – | – | – | –
CC(C(=O)O)N1C(=O)C2C3CC(C2C1=O)C1C(c2ccccc2)c2sc(=O)[nH]c2SC31 (stereo not given) | – | ? | 23.1µM | – | – | –
O=C(O)CCCN1C(=O)C2C3CC(C2C1=O)C1C(c2ccccc2)c2sc(=O)[nH]c2SC31 (stereo not given) | – | ? | – | – | – | –
Cc1cc(Br)cc2c(C(=O)Nc3c(C)n(C)n(-c4ccccc4)c3=O)cc(-c3cccs3)nc12 | – | – | – | – | – | –
COc1cc(/C=C(\C#N)c2nc3ccccc3s2)cc([N+](=O)[O-])c1O | 79.4µM | – | – | ? | – | –
Cc1cccc(NC(=O)c2cc3ccccc3oc2=O)c1 | – | ? | 11.6µM | – | – | –
Cc1ccc2oc(=O)c3cnn(CC(=O)NCCc4ccsc4)c3c2c1 | – | ? | – | – | – | –
O=C(Nc1ccc(Cl)cc1)c1ccc(OC2CSC2)cc1 | – | – | – | – | – | –
O=C1c2cccc3c(O)ccc(c23)C(=O)N1Cc1ccccc1 | – | ? | ? | – | 89.1µM | 100µM
O=C(O)c1cccc(CN2C(=O)c3ccccc3C2=O)c1 | – | – | – | – | – | –
FC(F)(F)c1ccccc1Cc1c(-c2ccccc2)nc2ccc(Cl)cn12 | – | · | · | – | – | –
FC(F)(F)c1ccccc1Cc1c(-c2ccc(Cl)cc2)nc2ccc(Cl)cn12 | – | · | · | 56.2µM | – | –
O=Cc1ccc(-c2ccccc2C(=O)O)o1 | – | – | – | – | – | –
O=C(O)c1ccccc1-c1c2cc(I)c(=O)c(I)c-2oc2c(I)c(O)c(I)cc12 | – | – | – | – | 100µM | 28.2µM
Cc1cccc(NC(=O)Cn2c(O)c(N=NC(=O)c3ccccc3O)c3ccccc32)c1 | 56.2µM | – | – | – | – | –
NC(=S)N=Nc1c(O)n(CC(=O)Nc2ccccc2)c2ccccc12 | – | – | – | – | – | –

Source: PubChem BioAssay (National Center for Advancing Translational Sciences (NCATS))
